The conditions of this data set: spiked tomato slice extracts and juice sample.

From US20190335746A1, “ANT[…] […] AGENTS AND SYSTEMS AND METHODS FOR USING THE SAME” (priority 2016, published 2019) come the findings set out here.

On to chlorite, for which the recoveries is reported as 0-69%.
